The values below come from article PMC10946398 (Journal of Medicinal Chemistry, 2024).

The data set in a line: parallel artificial membrane permeability assay. To be noted: for permeation increase (Log): increase of 18c (PAMPA −LogPe […]) over the listed compound. It is filed as in vitro ADME.

“And” between values parts separate entries of the source, which are not always exact repeats. Equal values may be shown once.

As to propranolol [Prop., reference compound], the “permeation increase (Log)” value was found to be 0.78 Log. In addition, the “PAMPA −LogPe” value (100 μM, phosphate buffer pH 6.4, 17 h, 37 °C, 150 rpm, triplicates) was 5.41 ± 0.22 and 5.41. Besides, the “permeation increase (Log)” value (listed as propanolol) is given as “about 0.78 Log”.
